Source: US20230078764A1 (Yumanity Therapeutics, Inc., priority 2019, published 2023)
Where two headings read alike, the source gives them in different places. One block for each compound: values may come before it.

Key:
human SCD5 = molecular target: T1, human SCD5 (Homo sapiens, UniProt Q86SK9); assay: Growth inhibition of yeast strain expressing human SCD5 as sole desaturase (OLE1 deleted), OD600 readout; type: cell-based
T1 construct: expressed in transfected cells; host or cells: yeast strain with OLE1 deleted, plasmid-borne human SCD5 (selected in SD-Ura)
T1 sequence (Q86SK9 1-330): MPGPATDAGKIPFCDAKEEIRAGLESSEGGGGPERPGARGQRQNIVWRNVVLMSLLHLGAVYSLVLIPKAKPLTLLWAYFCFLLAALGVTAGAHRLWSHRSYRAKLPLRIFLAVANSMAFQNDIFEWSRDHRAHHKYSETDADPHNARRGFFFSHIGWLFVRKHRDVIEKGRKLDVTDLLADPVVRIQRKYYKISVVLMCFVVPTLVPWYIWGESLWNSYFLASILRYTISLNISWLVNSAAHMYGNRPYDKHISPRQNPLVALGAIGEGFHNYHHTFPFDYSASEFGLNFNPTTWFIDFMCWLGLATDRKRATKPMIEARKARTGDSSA

human SCD1 = molecular target: T2, human SCD1 (Homo sapiens, UniProt O00767); assay: Growth inhibition of yeast strain expressing human SCD1 as sole desaturase (OLE1 deleted), OD600 readout; type: cell-based
T2 construct: expressed in transfected cells; host or cells: yeast strain with OLE1 deleted, plasmid-borne human SCD1 (selected in SD-Ura)
T2 sequence (O00767 1-359): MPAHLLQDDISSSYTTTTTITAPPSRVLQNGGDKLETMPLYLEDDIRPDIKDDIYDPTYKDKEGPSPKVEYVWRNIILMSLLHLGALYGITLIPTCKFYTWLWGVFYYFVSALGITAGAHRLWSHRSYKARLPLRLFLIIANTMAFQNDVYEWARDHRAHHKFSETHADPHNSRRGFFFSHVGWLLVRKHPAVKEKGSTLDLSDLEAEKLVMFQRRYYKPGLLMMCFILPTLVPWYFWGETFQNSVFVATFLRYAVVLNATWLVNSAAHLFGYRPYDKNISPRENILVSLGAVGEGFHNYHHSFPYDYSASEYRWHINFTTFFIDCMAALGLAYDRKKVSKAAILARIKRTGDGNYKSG

[1] = yeast strain expressing human SCD5 as sole desaturase, growth (OD600) after 40 h at 30° C., read-out: SCD5 IC50
[2] = yeast strain expressing human SCD1 as sole desaturase, growth (OD600) after 40 h at 30° C., read-out: SCD1 IC50

SMILES: CN1N=C(C(=O)Nc2ccc(Cc3ccc(F)cc3)cn2)CCC1=O [Example 17, N-(5-(4-fluorobenzyl)pyridin-2-yl)-1-methyl-6-oxo-1,4,5,6-tetrahydropyridazine-3-carboxamide]
- IC50 (human SCD5; [1]): 0.77 µM

SMILES: CN1N=C(C(=O)Nc2ccc(Cc3cc(F)cc(C#N)c3)cn2)CCC1=O [Example 26, N-(5-(3-cyano-5-fluorobenzyl)pyridin-2-yl)-1-methyl-6-oxo-1,4,5,6-tetrahydropyridazine-3-carboxamide]
- IC50 (human SCD5; [1]): 1.95 µM

SMILES: CN1N=C(C(=O)Nc2ccc(Cc3ccc4c(c3)COC4)cn2)CCC1=O [Example 19, N-(5-((1,3-dihydroisobenzofuran-5-yl)methyl)pyridin-2-yl)-1-methyl-6-oxo-1,4,5,6-tetrahydropyridazine-3-carboxamide]
- IC50 (human SCD5; [1]): 4.69 µM

SMILES: CN1N=C(C(=O)Nc2ccc(Cc3cccc(C#N)c3)cn2)CCC1=O [Compound 8, N-(5-(3-cyanobenzyl)pyridin-2-yl)-1-methyl-6-oxo-1,4,5,6-tetrahydropyridazine-3-carboxamide]
- IC50 (human SCD5; [1]): 4.2 µM

SMILES: CN1N=C(C(=O)Nc2ccc(Cc3ccc(C(F)(F)F)cc3)cn2)CCC1=O [Compound 9, 1-methyl-6-oxo-N-(5-(4-(trifluoromethyl)benzyl)pyridin-2-yl)-1,4,5,6-tetrahydropyridazine-3-carboxamide]
- IC50 (human SCD1; [2]): 3.04 µM
- IC50 (human SCD5; [1]): 0.56 µM

SMILES: COc1cccc(Cc2cnc(NC(=O)C3=NN(C)C(=O)CC3)s2)c1 [Compound 210, N-(5-(3-methoxybenzyl)thiazol-2-yl)-1-methyl-6-oxo-1,4,5,6-tetrahydropyridazine-3-carboxamide]
- IC50 (human SCD1; [2]): 0.38 µM
- IC50 (human SCD5; [1]): 1.31 µM

SMILES: COc1cc(Cl)cc(Cc2ccc(NC(=O)C3=NN(C)C(=O)CC3)nc2)c1 [Example 24, N-(5-(3-chloro-5-methoxybenzyl)pyridin-2-yl)-1-methyl-6-oxo-1,4,5,6-tetrahydropyridazine-3-carboxamide]
- IC50 (human SCD1; [2]): 10.8 µM
- IC50 (human SCD5; [1]): 0.29 µM

SMILES: CN1CCCC(C(=O)Nc2ncc(Cc3cccc(F)c3)s2)=N1 [Compound 217, N-(5-(3-fluorobenzyl)thiazol-2-yl)-1-methyl-1,4,5,6-tetrahydropyridazine-3-carboxamide]
- IC50 (human SCD1; [2]): 3.69 µM
- IC50 (human SCD5; [1]): 2.38 µM

SMILES: CN1N=C(C(=O)Nc2nnc(Cc3cccc(F)c3)s2)CCC1=O [Compound 211, N-(5-(3-fluorobenzyl)-1,3,4-thiadiazol-2-yl)-1-methyl-6-oxo-1,4,5,6-tetrahydropyridazine-3-carboxamide]
- IC50 (human SCD1; [2]): 14.6 µM
- IC50 (human SCD5; [1]): 2.94 µM

SMILES: CN1N=C(C(=O)Nc2ccc(Cc3ccccc3)cn2)CCC1=O [Compound 13, N-(5-benzylpyridin-2-yl)-1-methyl-6-oxo-1,4,5,6-tetrahydropyridazine-3-carboxamide]
- IC50 (human SCD5; [1]): 1.54 µM

SMILES: CN1N=C(C(=O)Nc2ccc(Cc3cc(F)c(F)c(F)c3)cn2)CCC1=O [Example 29, 1-methyl-6-oxo-N-(5-(3,4,5-trifluorobenzyl)pyridin-2-yl)-1,4,5,6-tetrahydropyridazine-3-carboxamide]
- IC50 (human SCD1; [2]): 11.9 µM
- IC50 (human SCD5; [1]): 0.05 µM

SMILES: Cn1cc(C(=O)Nc2ccc(Oc3cccc(F)c3)cn2)ccc1=O [Compound 160, N-[5-(3-fluorophenoxy)pyridin-2-yl]-1-methyl-6-oxo-1,6-dihydropyridine-3-carboxamide]
- IC50 (human SCD5; SCD5 IC50): 3.07 µM

SMILES: Cn1nc(C(=O)Nc2cnn(Cc3cccc(Cl)c3)c2)ccc1=O [Compound 215, N-(1-(3-chlorobenzyl)-1H-pyrazol-4-yl)-1-methyl-6-oxo-1,6-dihydropyridazine-3-carboxamide]
- IC50 (human SCD5; [1]): 4.02 µM

SMILES: CN1N=C(C(=O)Nc2ccc(Cc3cc(F)cc(F)c3)cn2)CCC1=O [Example 22, N-(5-(3,5-difluorobenzyl)pyridin-2-yl)-1-methyl-6-oxo-1,4,5,6-tetrahydropyridazine-3-carboxamide]
- IC50 (human SCD5; [1]): 0.46 µM

SMILES: CN1N=C(C(=O)Nc2ncc(Cc3ccc(F)c(F)c3)s2)CCC1=O [Compound 228, N-(5-(3,4-difluorobenzyl)thiazol-2-yl)-1-methyl-6-oxo-1,4,5,6-tetrahydropyridazine-3-carboxamide]
- IC50 (human SCD1; [2]): 0.34 µM
- IC50 (human SCD5; [1]): 0.32 µM

SMILES: CCn1cc(C(=O)Nc2ccc(Oc3cccc(F)c3)cn2)ccc1=O [Compound 164, 1-ethyl-N-[5-(3-fluorophenoxy)pyridin-2-yl]-6-oxo-1,6-dihydropyridine-3-carboxamide]
- IC50 (human SCD5; [1]): 6.22 µM

- IC50 (human SCD5; [1]): 13.3 µM
SMILES: COc1cccc(Cc2ccc(NC(=O)C3=NN(C)C(=O)CC3)nn2)c1 [Compound 182, N-(6-(3-methoxybenzyl)pyridazin-3-yl)-1-methyl-6-oxo-1,4,5,6-tetrahydropyridazine-3-carboxamide]

SMILES: Cn1nc(C(=O)Nc2ccc(Oc3cccc(F)c3)cn2)ccc1=O [Compound 162, N-[5-(3-fluorophenoxy)pyridin-2-yl]-1-methyl-6-oxo-1,6-dihydropyridazine-3-carboxamide]
- IC50 (human SCD5; SCD5 IC50): 1.79 µM

SMILES: CN1N=C(C(=O)Nc2ccc(Cc3ccc(Cl)cc3)cn2)CCC1=O [Compound 12, N-(5-(4-chlorobenzyl)pyridin-2-yl)-1-methyl-6-oxo-1,4,5,6-tetrahydropyridazine-3-carboxamide]
- IC50 (human SCD1; SCD1 IC50): 1.6 µM
- IC50 (human SCD5; SCD5 IC50): 0.21 µM
